Measured values as given in paper PMC3522796 (Cancer letters, 2012).

Columns and labels:
[1] = fresh 4T1 tumor homogenate, 37°C, 48 h, 10 µg/g tumor
[2] = Stability of C22-PX formulations in PBS at 37°C; type: physicochemical; details: 48 h, 10 µg/ml

- PX derived, % of the total C22-PX added [1]: 5–7%
- Solubility in different Miglyols (Miglyol 808, 810, 812, 818, room temperature, 24 h): 51–73 µg/mg Miglyol
- Increase of solubility in Miglyol 812 compared to PX (Miglyol 812): 25 fold
- Increase of solubility in Miglyols compared to PX (different Miglyols, room temperature): 15–25 fold
- Solubility in Miglyol 812 (room temperature, 24 h): 72.5 ± 17.1 µg/mg Miglyol
- C22-PX retained after incubation in PBS [2]: ~ 30%
Substance: 2’-behenoyl-paclitaxel [Formulation C22-PX]
